In patent publication US10034922B2, “Peptide having angiogenesis inhibitory activity and composition containing same” (GemVax & KAEL Co., Ltd., priority 2013, dated 2018):

Assays:
[1] = test system: HIF-1α; assay: HIF-1α production in hypoxia-induced cancer cells (immunoblotting); assay type: cell-based, human; details: PEP1 20 μM, vs mock treated control
Procedure: In hypoxia circumstance, for verifying the effect of PEP1 to the level of HSP, MCF7 and HeLa cells were treated with 20 μM PEP1, and incubated in the hypoxia circumstance and the normoxia circumstance. By using BBL GasPak (Becton Dickinson) which lows the oxygen to non-detective level in 90 minutes by catalytic reaction, the anoxia circumstance was induced. The incubation time was in a range of 2 to 24 hours. As mentioned above, the cells were collected and immunoblotted by using α-HSP70, α-HSP90, α-HIF-1α, or α-GAPDH antibodies. The α-GAPDH, for the protein quantification, was used for the normalization of the amount of HSP70/90 by the amount of GAPDH.
After treating the starvation for 2 hours by adding the OPTI-MEM media, same as the shown figure, the cells were treated by the PEP1 at the different concentrations, by the scrambled peptides, […] (1 μM) or KNK437 (1 μM). […] By using Bradford Protein Assay (Bio-Rad, USA), the protein concentration was quantified, and the samples were treated by SDS-PAGE and immunoblotting with α-HSP70 (sc-32239 and sc-66048, Santa Cruz, Calif., USA), α-HSP90 (ab1429, abcam, USA), α-GRP78 (sc-13968), α-HIF-1a (sc-10790) or α-GAPDH (sc-25778) antibodies. The immune reactive band was visualized by the intensive chemiluminescence kit (iNtRoN Biotechnology, INC, Korea), and analyzed by ImageQuant™ LAS-4000 (GE Healthcare Life Science, NJ, US).

[2] = test system: murine colon carcinoma MC38; assay: Tumor growth in vivo, MC38 cells in BALB/c athymic (Nu/Nu) mice; parameters: species or system mouse; details: PEP1 50 μg/kg once per 2 days
Procedure: 7 week-old BALB/c athymic mice (Nu/Nu) (10 mice per group; n=20, female, Orient Bio Co. Gyunggido, Korea) were divided into two groups randomly after the subcutaneous injection of murine colon carcinoma MC38 (5×10^5 cells/ml in 200 μl PBS per site). PEP1 (50 μg/kg in 100 μl 0.9% NaCl solution) or PBS were injected into the mice once per 2 days. When the size of tumor reaches 10 mm, the PEP1 and PBS were injected to the inside of tumor. The size of tumor was measured in once per 2 days, and the volume of tumor was calculated following equation; volume (mm3)=((width2×length)/2). All experiments were approved by the Institute for Experimental Animals (College of Medicine, Seoul National University at Seoul, Korea).

[3] = test system: Human umbilical vein endothelial cell; assay: Vascular endothelial cell viability, EGM-2 media; assay type: cell-based; details: PEP1 0.05, 0.5, 5 μM, EGM-2 media stimulation
Procedure: (§1) The vascular endothelial cells were plated to a 6-well plate (BD Biosciences, Bedford, Mass., USA) of the 1×10^5 cells/well. The cells were synchronized by the basic EBM-2 media (Lonza) which has no serum and angiogenesis factors, treated by PEP1 at each concentration (0.05, 0.5, 5 μM) and stimulated by the EGM-2 media, in order to observe the cell proliferation inhibition effect.
(§2) For detecting the cell proliferation, by using the trypan blue staining solution (Invitrogen, Carlsbad, Calif., USA), the cells were directly counted in the microscope (×100), and the cell viability was analyzed by using viability assay kit (Merck Millipore Inc.) with Muse™ analyzer.

[4] = test system: Human umbilical vein endothelial cell; assay: Endothelial tube formation stimulated by EGM-2 media; assay type: cell-based; details: PEP1 0.05, 0.5, 5 μM, EGM-2 media stimulation
Procedure: (§3) On the 24-well plate coated by 200 μl of Matrigrl® basement membrane matrix (10.4 mg/mL, BD Biosciences) for 30 minutes at 37° C., the vascular endothelial cells were plated and serum-starved in the basic EBM-2 media for 2 hours. The change of the tube formation was observed by Olympus CKX41 inverted microscope (CAchN 10/0.25 php objective, Olympus Optical Co., Tokyo, Japan) and ToupTek Toupview software (version x86, 3.5.563, Hangzhou ToupTek Photonics Co., Zhejiang, P. R. China) (FIG. 2a).

[5] = test system: Human umbilical vein endothelial cell induced by VEGF-A; assay: Vascular endothelial cell proliferation by VEGF-A; assay type: cell-based; details: PEP1 0.05, 0.5, 5 μM, VEGF-A 10 ng/mL, 24 hours
Procedure: as §1, with “were synchronized to the G1/G0 phase by the” for “were synchronized by the”, “treated by the PEP1 at” for “treated by PEP1 at”, “by the VEGF-A (10 ng/mL) for 24 hours, in order” for “by the EGM-2 media, in order”
as §2

[6] = test system: Human umbilical vein endothelial cell induced by VEGF-A; assay: Endothelial tube formation by VEGF-A; assay type: cell-based; details: PEP1 0.05, 0.5, 5 μM, VEGF-A 10 ng/mL, 6 hours
Procedure: as §3, with “endothelial cells (4×10^4 cells/well) were plated” for “endothelial cells were plated”, “for 2 hours. After treating with PEP1 at each concentration (0.05, 0.5, 5 μM) and the cells was stimulated by VEGF-A (10 ng/mL) for 6 hours. The” for “for 2 hours. The”, “China) (FIG. 4a).” for “China) (FIG. 2a).”

[7] = test system: Human umbilical vein endothelial cell induced by VEGF-A; assay: Invasion of vascular endothelial cells by VEGF-A (Matrigel transwell); assay type: cell-based; details: PEP1 0.05, 0.5, 5 μM, VEGF-A 10 ng/mL, 18 hours
Procedure: The vascular endothelial cells of the serum-starvation by the basic EBM-2 media for 2 hours were plated each as 100 mL (4×10^5 cells/mL) to Matrigel® (1 mg/mL, BD Biosciences)-coated transwell insert (Costar, 6.5 mm diameter), and the 600 μl basic EBM-2 media was added to the under well.
After treating with PEP1 at each concentration (0.05, 0.5, 5 μM) and stimulating by VEGF-A (10 ng/mL) for 18 hours, the insert was fixed by the methanol and the non-infiltrated cells in the upper side of the insert was eliminated by using cotton-tipped swab. After staining by the Giemsa stain solution (Sigma-Aldrich Co., St. Louis, Mo., USA) and observing the 6 different parts by the microscope (×200), the infiltrated cells were directly counted by using the microscope (FIG. 6a).

With CC[C@H](C)[C@H](NC(=O)[C@H](Cc1ccccc1)NC(=O)[C@H](CCCNC(=N)N)NC(=O)[C@H](CC(C)C)NC(=O)[C@H](CCCNC(=N)N)NC(=O)[C@H](CO)NC(=O)[C@@H](NC(=O)[C@H](CC(C)C)NC(=O)[C@H](CC(C)C)NC(=O)[C@H](C)NC(=O)[C@@H]1CCCN1C(=O)[C@H](CCCNC(=N)N)NC(=O)[C@H](C)NC(=O)[C@@H](N)CCC(=O)O)[C@@H](C)O)C(=O)N1CCC[C@H]1C(=O)N[C@@H](CCCCN)C(=O)O [PEP1, EARPALLTSRLRFIPK] the “expression of HIF-1α” value ([1]; HeLa cells) was “very decreased”, the “expression of HIF-1α” value ([1]; MCF7 cells) was “very decreased” and the “average amount of tumor of the control group relative to PEP1 treated group” value ([2]; 18th day after injection) was 3 times. For the same compound, the “amount of tumor, PEP1 treated group vs control group” value ([2]; measured every 2 days) was “significant difference”, the “tumor weight of the control group compared with PEP1 treated group” value ([2]; after sacrifice) was “much heavier” and the cell survival rate [3] was “did not affect”. For the same compound, the tube formation [4] was “in a concentration-dependent way inhibits”, the “vascular endothelial cell proliferation by VEGF-A” value [5] was “in a concentration dependent way inhibited” and the “endothelial tube formation by VEGF-A” value [6] was “in a concentration dependent way inhibits”. The “cell invasion by the VEGF-A” value [7] was “strongly inhibits”.
